The results in this text go back to ChEMBL document CHEMBL1135960 (Bioorg Med Chem Lett, 2002).

Amino acid sequences for entries named in this document (tags omitted). A change or cut given only in a name is not applied to a line headed by its entry.
UniProt P46098: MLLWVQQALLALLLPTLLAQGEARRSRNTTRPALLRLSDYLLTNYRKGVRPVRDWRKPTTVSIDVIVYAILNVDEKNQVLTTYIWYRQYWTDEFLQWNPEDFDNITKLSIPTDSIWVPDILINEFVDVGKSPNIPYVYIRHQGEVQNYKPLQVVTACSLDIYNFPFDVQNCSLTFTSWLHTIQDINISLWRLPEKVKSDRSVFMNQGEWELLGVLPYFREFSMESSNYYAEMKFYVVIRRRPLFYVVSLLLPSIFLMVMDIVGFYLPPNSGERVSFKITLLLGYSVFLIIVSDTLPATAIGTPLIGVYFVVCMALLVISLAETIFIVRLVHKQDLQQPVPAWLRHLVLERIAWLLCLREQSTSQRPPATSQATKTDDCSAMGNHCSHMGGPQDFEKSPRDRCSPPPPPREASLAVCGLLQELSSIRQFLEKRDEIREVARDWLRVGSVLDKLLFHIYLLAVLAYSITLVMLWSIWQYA
UniProt A5X5Y0: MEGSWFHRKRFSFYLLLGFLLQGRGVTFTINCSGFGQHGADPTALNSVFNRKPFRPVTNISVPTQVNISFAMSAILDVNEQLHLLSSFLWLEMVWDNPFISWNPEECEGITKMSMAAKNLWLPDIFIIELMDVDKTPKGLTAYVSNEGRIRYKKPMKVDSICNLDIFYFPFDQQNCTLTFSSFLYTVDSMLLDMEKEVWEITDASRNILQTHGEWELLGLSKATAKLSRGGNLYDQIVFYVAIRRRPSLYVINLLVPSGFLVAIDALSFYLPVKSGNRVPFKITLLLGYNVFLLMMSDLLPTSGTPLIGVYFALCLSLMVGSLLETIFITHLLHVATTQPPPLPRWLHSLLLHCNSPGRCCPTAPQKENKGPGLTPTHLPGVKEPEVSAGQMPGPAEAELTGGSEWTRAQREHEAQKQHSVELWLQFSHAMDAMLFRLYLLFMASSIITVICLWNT
UniProt O95264: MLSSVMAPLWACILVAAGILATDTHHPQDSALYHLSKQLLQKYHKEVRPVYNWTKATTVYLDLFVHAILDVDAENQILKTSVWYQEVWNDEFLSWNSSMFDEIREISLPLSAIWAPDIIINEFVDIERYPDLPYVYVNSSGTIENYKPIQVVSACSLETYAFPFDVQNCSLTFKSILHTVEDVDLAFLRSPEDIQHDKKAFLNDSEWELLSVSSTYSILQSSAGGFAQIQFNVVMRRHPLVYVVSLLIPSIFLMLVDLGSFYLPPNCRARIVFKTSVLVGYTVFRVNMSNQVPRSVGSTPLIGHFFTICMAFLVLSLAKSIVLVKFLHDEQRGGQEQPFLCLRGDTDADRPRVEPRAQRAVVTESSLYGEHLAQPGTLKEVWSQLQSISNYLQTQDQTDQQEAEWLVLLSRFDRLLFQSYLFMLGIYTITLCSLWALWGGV
UniProt Q70Z44: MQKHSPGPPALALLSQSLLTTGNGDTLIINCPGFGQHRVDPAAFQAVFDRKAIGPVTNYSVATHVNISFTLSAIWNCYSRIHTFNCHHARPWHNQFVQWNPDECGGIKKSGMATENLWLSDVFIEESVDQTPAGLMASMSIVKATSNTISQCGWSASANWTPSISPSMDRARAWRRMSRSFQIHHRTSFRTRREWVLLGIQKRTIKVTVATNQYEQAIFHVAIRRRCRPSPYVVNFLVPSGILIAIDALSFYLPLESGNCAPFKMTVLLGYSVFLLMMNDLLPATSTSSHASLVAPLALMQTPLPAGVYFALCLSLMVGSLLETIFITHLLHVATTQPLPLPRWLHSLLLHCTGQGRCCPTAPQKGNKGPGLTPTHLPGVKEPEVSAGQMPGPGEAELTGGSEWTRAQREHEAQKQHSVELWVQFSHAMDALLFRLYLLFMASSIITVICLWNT
UniProt Q8WXA8: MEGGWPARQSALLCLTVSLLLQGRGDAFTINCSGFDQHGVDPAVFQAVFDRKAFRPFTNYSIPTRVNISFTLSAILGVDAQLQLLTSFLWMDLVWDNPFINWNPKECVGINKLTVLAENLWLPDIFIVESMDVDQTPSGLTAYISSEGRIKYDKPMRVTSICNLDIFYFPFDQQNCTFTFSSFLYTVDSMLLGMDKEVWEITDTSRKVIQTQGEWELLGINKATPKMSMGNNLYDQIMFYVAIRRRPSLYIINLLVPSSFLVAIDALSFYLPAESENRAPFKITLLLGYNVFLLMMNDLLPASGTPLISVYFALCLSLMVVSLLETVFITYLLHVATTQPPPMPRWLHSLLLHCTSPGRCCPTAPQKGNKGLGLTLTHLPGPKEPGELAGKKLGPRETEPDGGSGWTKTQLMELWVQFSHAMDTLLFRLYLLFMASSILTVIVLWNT

For the assay, the target named is Serotonin 3 (5-HT3) receptor (Homo sapiens) (UniProt P46098+A5X5Y0+O95264+Q70Z44+Q8WXA8). Description: Intrinsic activity towards CNS 5-hydroxytryptamine 3 receptor was determined; PA: Partial agonist. The assay is classed as functional. The note with it: filed as partial agonist.

Molecules are shown by their SMILES.

For `CN1CCN(c2nc3ccccc3c3c2CCCC3)CC1`, the Intrinsic activity result was “Partial agonist”.
